Measured values: paper PMC10789052

Biological target: FLAG-ARMC5 R315W mutant (human)
Experiment: affinity purification with mass spectrometry; HEK293 cells transfected with FLAG-tagged ARMC5 or ARMC5 R315W for 24 h; anti-FLAG precipitates analysed by LC-MS/MS; compared with FLAG empty vector; spectral counts normalised to the bait

POLR2A, the largest subunit of RNA polymerase II (endogenous in HEK293) (from UniProt P24928 1-1970) (natural protein)
fold lower binding capacity than WT ARMC5: 4 fold
